Molecular target: cloned human P2Y1 receptors (Homo sapiens (Human), UniProt P47900)
Test: Binding Assay B - Scintillation Proximity Assay (SPA) for P2Y1 binding, [33P] 2MeS-ADP
Conditions: read-out: P2Y1 Ki (nM) using binding assay B, 0.3 nM [33P] 2MeS-ADP, Cheng-Prusoff

Chains of the proteins cited; added tags and fusions are not shown.
UniProt P47900, whole entry: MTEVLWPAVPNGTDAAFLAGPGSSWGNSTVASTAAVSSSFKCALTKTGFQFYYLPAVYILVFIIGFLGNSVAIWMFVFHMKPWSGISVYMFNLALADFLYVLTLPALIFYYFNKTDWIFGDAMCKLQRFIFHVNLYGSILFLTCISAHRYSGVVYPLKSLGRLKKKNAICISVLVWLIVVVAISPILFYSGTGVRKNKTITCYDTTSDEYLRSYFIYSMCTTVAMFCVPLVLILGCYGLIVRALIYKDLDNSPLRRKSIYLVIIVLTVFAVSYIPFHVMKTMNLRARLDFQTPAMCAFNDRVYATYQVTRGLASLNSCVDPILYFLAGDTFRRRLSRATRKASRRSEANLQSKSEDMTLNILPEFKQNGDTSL

- Ki: 26.7 nM
SMILES: CC1(C)CN(c2ccccc2NC(=O)Nc2ccc(OC(F)(F)F)cc2)c2c(O)ccc(-c3nc4cc(F)ccc4o3)c21
